According to paper PMC8341910, “Structural and biophysical insights into the mode of covalent binding of rationally designed potent BMX inhibitors” (RSC Chemical Biology, 2020):
Where “and” joins values, the source holds several entries; their conditions need not be identical. Equal entries are not always repeated.

Amino acid sequences for entries named in this document (tags omitted).
UniProt Q06187, whole entry, species assumed: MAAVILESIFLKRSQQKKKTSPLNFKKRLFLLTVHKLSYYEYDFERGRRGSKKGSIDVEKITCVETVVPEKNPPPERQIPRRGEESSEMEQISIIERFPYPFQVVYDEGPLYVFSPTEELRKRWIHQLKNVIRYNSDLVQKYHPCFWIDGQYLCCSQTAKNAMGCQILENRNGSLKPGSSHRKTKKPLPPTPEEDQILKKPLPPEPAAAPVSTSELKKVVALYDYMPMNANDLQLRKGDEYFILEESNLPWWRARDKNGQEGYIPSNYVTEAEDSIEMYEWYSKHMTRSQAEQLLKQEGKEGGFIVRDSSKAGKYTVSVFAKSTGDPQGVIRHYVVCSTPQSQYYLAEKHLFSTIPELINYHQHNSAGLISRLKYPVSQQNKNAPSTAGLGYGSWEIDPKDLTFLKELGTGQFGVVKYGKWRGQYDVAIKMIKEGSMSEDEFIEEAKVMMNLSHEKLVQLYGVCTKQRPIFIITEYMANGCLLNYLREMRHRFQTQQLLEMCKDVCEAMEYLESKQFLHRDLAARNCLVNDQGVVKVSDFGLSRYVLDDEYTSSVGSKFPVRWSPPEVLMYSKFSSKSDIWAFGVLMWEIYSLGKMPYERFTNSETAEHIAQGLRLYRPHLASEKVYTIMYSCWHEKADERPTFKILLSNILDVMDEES

Key:
BMX [1] = molecular target: T1, BMX (Homo sapiens, UniProt P51813); assay: BMX biochemical activity assay (HTRF, phosphorylation of a biotinylated peptide)
T1 sequence (P51813 1-675): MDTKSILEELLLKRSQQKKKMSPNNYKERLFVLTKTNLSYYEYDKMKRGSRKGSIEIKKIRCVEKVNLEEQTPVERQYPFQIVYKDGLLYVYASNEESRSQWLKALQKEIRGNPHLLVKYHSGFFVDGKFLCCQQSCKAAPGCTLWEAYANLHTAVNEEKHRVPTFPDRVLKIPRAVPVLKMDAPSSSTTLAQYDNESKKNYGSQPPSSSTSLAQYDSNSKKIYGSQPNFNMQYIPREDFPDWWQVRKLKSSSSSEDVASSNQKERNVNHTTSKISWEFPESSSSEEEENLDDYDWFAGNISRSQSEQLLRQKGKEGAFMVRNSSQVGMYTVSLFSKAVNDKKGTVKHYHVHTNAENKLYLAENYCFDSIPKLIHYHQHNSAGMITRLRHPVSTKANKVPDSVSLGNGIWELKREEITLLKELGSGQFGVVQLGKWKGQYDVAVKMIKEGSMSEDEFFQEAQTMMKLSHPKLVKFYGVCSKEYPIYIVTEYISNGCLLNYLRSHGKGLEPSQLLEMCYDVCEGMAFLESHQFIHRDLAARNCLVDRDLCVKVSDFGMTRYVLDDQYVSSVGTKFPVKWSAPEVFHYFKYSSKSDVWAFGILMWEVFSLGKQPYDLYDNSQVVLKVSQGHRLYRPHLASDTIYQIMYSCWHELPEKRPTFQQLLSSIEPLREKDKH

[2] = molecular target: T2, NanoLuc®-BMX fusion vector in HEK293 cells (Homo sapiens, UniProt P51813); assay: NanoBRET TE intracellular kinase assay; assay type: cell-based; conditions: NanoBRET IC50 ratio
T2 sequence (P51813 1-675): T1 sequence (P51813 1-675)

His6-hsBMX = molecular target: T3, His6-hsBMX (Homo sapiens, UniProt P51813); assay: Surface plasmon resonance (SPR); assay type: binding
T3 construct: Crystallization, data collection, and structure determination of BMX catalytic domain in; made in house; host or cells: Sf-9 insect cells

BTK = BTK (Homo sapiens, UniProt Q06187); assay: BTK biochemical activity assay (radiometric, KinaseProfiler); set-up: purchased Eurofins DiscoverX KinaseProfiler (contract assay)
BMX [3] = molecular target: T1, BMX; assay: Kinetic characterization with ADP-Glo kinase assay; assay type: biochemical; set-up: purchased Promega Corporation (USA) V4512; conditions: duplicate, mean ± S.D.
Excerpt: The inactivation of BMX occurs in a two-step process that is governed by two parameters: the affinity of the initial non-covalent binding, KI, and the rate of the subsequent covalent bond-forming reaction with the thiol of the cysteine residue, kinact. […]. […] Thus, taking into account that all the analogues have the same Michael acceptor moiety, the enhanced activity must be a result of the structural modifications introduced in the scaffold. […]
Kinetic characterization using an ADP-GLOTM kinase assay:
The BMX enzyme system (Catalog. V4512) and the ADP-GloTM kinase assay were purchased from Promega Corporation (USA). In each kinase reaction, the concentration of BMX was set to 4.5 ng/µL. The peptide substrate Poly (4:1 Glu, Tyr) and ATP concentrations were set to 0.25 mg/mL and 50 µM, respectively. BMX was pre-incubated with different inhibitor concentrations (10-fold serial dilutions, starting at 1 mM), over different time periods (2 - 60 min), before initiating the kinase reactions. […] Then, 10 µL of kinase detection reagent was added into the wells and incubated for 30 min to produce a luminescence signal. The signal was measured using an Infinite M200 […]
observed rate constants for inhibition (kobs), at different inhibitor concentrations, were determined from the slope of a semi-logarithmic plot of inhibition versus time, and re-plotted against inhibitor concentration (nM). […]

`C=CC(=O)Nc1cc(C)cc(-n2c(=O)ccc3cnc4cc(-c5ccc(NS(C)(=O)=O)cc5)ccc4c32)c1` [JS25] was tested, and the “LE (BMX)” value (BMX [1]) was 0.30, the “LipE (BMX)” value (BMX [1]) was 4.43 and the “inhibitory capacity relative to BMX-IN-1 (times greater)” value [2] was 10 times. The koff (His6-hsBMX) was less than 0.0001 s⁻¹, the kon (His6-hsBMX) was 54000 M⁻¹ s⁻¹ and the “BTK potency gain (fold) relative to BMX-IN-1” value (BTK) was 62 fold. For the same compound, the “LE (BTK)” value (BTK; ligand efficiency) was 0.30, the “LipE (BTK)” value (BTK; lipophilic efficiency) was 4.22 and the k inact (BMX [3]) was 0.378 min⁻¹ and 0.378 ± 0.034 min⁻¹.
